Test results: PubChem BioAssay AID686979 (National Center for Advancing Translational Sciences (NCATS), 2013)
The list shows a part of the results, in another mix than the full data. Results filed as inconclusive are left out. Entries that show only a call come without a potency. Calls of active or inactive are those of the source. Calls follow the shape of the dose curve; as a rule, active = well fitted inhibition curve with a large enough effect; inconclusive = small, poorly fitted or top-dose-only effect; inactive = flat fitted curve, though single readings scatter.
Potency is read from the fitted curve at half-maximal effect.

Assay: qHTS for Inhibitors of human tyrosyl-DNA phosphodiesterase 1 (TDP1): qHTS in cells in presence of CPT; also: nearly all actives have a fitted effect of over 55% in size
Conditions: chicken DT40 Tdp1-/-;hTDP1 cells + 20 nM CPT, ATP luminescence, 48 h; series mostly up to 92.5 µM
With `CCC(=O)N(c1ccccc1)C1(COC)CCN(CCc2cccs2)CC1` the Potency was active: 13.7 µM. In the case of `CCC(=O)N(c1ccccc1)C1(COC)CCN(CCn2nnn(CC)c2=O)CC1`, the Potency is reported as “inactive”.
